{"sequences": {"note": "Sequences of proteins named here, by UniProt entry; tags and fusion partners are left off. Residues count along the entry.", "UniProt Q15116, 25-288": "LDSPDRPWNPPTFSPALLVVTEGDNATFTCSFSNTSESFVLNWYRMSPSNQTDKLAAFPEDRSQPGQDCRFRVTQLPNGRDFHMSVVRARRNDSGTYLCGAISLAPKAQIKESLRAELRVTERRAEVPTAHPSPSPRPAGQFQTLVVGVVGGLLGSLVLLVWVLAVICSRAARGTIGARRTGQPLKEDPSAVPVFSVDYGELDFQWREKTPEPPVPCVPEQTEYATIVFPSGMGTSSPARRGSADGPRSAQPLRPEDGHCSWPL"}, "source": "patent US20170184604A1", "about": "“DD1ALPHA RECEPTOR AND USES THEREOF IN IMMUNE DISORDERS” (THE GENERAL HOSPITAL CORPORATION, priority 2014, published 2017)", "key": {"naïve CD4+CD62L+ T cells": {"test_system": "naïve CD4+CD62L+ T cells", "assay": "iTreg cell development assay", "assay_type": "cell-based, mouse", "settings": "in the presence of TGF-β", "description": "(§1) (FIG. 5A) DD1α inhibits the activation of human CD4+ T cells and CD8+ T cells. Enriched human CD4+ T cells and CD8+ T cells were stained with CFSE (1 μM) and stimulated with plate-bound anti-CD3 antibody (3 μg/ml) together with 2, 5, or 10 μg/ml of DD1α-Ig proteins or control Ig proteins. The proliferations of CD4+ T or CD8+ T cells were determined by the percentages of CFSE-labeled CD4+ T or CD8+ T cells at the 72-hour culture. The levels of cytokines IFN-γ and TNF-α in culture supernatant were analyzed by ELISA at the 48-hour culture. (FIG. 5B) DD1α-mediated inhibition of T cell activation is modulated by α-PD1 antibodies. […] The proliferation and cytokine production of CD4+ T cells were determined as FIG. 5A. […] The proliferations of CD4+ T cells were determined by percentage of CFSE-diluted CD4+ cells on day 3. The levels of cytokines IFN-γ and IL-2 in culture supernatant were analyzed by ELISA on day 2. […] Development of Foxp3+ iTreg cells was assessed by flow cytometric analysis of Foxp3 expression after stimulation with anti-CD3 (5 μg/ml) and anti-CD28 (2 μg/ml) plus the indicated concentrations of TGF-β together with 10 μg/ml of control Ig, DD1α-Ig or PD-L1-Ig for 3 days. […]"}, "TIM-3": {"target": "T1, TIM-3 (Homo sapiens, UniProt Q8TDQ0)", "T1 construct": "full length human PD-1 and Tim3 cDNA (Sino biological) were cloned into pcDNA3.1(−) tagged with HA at C-terminus; host or cells: HEK293T", "assay": "Ig fusion protein staining of 293T transfectants (flow cytometry)", "assay_type": "binding", "settings": "cell surface staining", "description": "(§2) The bound Ig fusion proteins were detected with anti-Ig-APC. Empty vector (pcDNA3.1)-transfected cells stained with Ig proteins are shown as a negative control (gray filled) and other staining is shown as black open. […] Purified CD4+ T cells from Wt and DD1α−/− mice were assayed for binding to Ig fused DD1α or PD1 proteins. […] The bound Ig fusion proteins were detected by anti-Ig-APC. Binding amounts were determined by percentage of APC positive cells compared to control Ig protein-bound cells. […] The bead bound proteins were eluted and determined by western blot analysis using anti-HA antibody (asterisks). […] The bead bound proteins were eluted and detected by western blot analysis with anti-DD1α or anti-PD1 antibody (asterisk). […] MCF7 cells were treated by Nutlin-3 (10 μM) for 1 to 3 days. MCF7 cells were transfected with control siRNA or p53 siRNA for 24 hours and treated with CPT (500 nM) or DMSO (control) for 1 and 2 days. The levels of indicated proteins were analyzed by western blot analysis. Total RNAs from control siRNA or p53 siRNA transfected MCF7 cells were assessed for mRNA levels of PD1 or PD-L1 by real-time quantitative PCR."}, "PD-1": {"target": "T2, PD-1 (Homo sapiens, UniProt Q15116)", "T2 construct": "full length human PD-1 and Tim3 cDNA (Sino biological) were cloned into pcDNA3.1(−) tagged with HA at C-terminus; host or cells: HEK293T", "assay": "Ig fusion protein staining of 293T transfectants (flow cytometry)", "assay_type": "binding", "settings": "cell surface staining", "description": "as §2"}, "human CD4+ T cells": {"test_system": "human CD4+ T cells", "assay": "Human T cell activation assay (CFSE proliferation, cytokine ELISA)", "assay_type": "cell-based", "settings": "plate-bound anti-CD3 3 μg/ml", "description": "as §1"}, "DD1α": {"test_system": "DD1α", "assay": "Ig fusion protein staining of 293T transfectants (flow cytometry)", "assay_type": "binding, human", "settings": "cell surface staining", "description": "as §2"}}}
{"substance": "PD-L1-Ig: Recombinant human or mouse PD-L1-Ig fusion protein from R&D Systems [reference compound]", "values": [{"measurement": "iTreg cell development", "setting": "naïve CD4+CD62L+ T cells", "result": "as did PD-L1-Ig"}, {"measurement": "binding to TIM-3 transfectants", "setting": "TIM-3", "result": "not to DD1α or TIM-3 transfectants"}, {"measurement": "binding to PD-1-transfected 293T cells", "setting": "PD-1", "result": "bound to PD-1"}, {"measurement": "proliferation of human CD4+ T cells", "setting": "human CD4+ T cells; Ig control 92.2%", "result": 48.5, "unit": "%"}, {"measurement": "inhibition of anti-CD3-stimulated human CD4+ T cell proliferation", "setting": "human CD4+ T cells; relative to Ig control (92.2% proliferation)", "result": "~44", "unit": "%"}, {"measurement": "binding to DD1α-transfected 293T cells", "setting": "DD1α", "result": "not to DD1α or TIM-3 transfectants"}]}
